Results: PubChem BioAssay AID619 (University of Pittsburgh Molecular Library Screening Center, 2007)
The entries are a selection whose mix differs from that of the whole data set. Some of these compounds have results that are not shown, active ones among them. Calls of active or inactive are those of the source.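 The calls were made as follows: active = inhibition of 50% or more in the single-concentration screen; inactive = inhibition below 50%.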

Protein sequences, listed by entry. Tags and fused reporters are not part of them.
UniProt P53350, whole entry: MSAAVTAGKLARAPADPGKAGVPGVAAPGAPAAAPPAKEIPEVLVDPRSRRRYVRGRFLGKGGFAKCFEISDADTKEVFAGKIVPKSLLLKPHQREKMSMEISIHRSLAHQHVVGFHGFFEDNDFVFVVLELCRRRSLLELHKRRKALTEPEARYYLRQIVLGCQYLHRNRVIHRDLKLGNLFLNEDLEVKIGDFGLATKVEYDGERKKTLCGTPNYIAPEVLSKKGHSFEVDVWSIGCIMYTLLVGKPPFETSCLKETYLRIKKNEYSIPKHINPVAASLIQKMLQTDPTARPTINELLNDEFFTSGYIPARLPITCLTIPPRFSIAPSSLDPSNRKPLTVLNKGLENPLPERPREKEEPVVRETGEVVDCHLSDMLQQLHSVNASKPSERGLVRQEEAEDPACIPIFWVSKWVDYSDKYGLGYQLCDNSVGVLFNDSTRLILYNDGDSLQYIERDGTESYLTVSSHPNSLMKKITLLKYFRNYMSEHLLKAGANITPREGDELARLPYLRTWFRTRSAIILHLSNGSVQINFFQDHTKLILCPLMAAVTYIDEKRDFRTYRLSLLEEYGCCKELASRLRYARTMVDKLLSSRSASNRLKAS

Molecular target: Serine/threonine-protein kinase PLK1 (Homo sapiens) (UniProt P53350)
Assay: human PLK1 kinase inhibitors, primary screen, biochemical, TR-FRET (AID 619);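 also: 0% = DMSO max control and 100% = H-89 dihydrochloride min control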
Details: recombinant PLK1 kinase, TR-FRET peptide phosphorylation; at 10 µM; active compounds read high

SMILES	inhibition
CN(C)c1cccc(C(=O)NCC2(N(C)C)CCCCC2)c1	inactive: -17.2%
O=C(OC1CN2CCC1CC2)C(CO)(c1ccccc1)c1ccccc1 (stereo not drawn)	inactive: -6.58%
CC(C)N1C(=O)CC2(CCN(CCOC(=O)C(O)(c3ccccc3)c3ccccc3)CC2)C1=O	inactive: -10.2%
